Data published in US6579857B1, “Combination cancer therapy comprising adenosine and deaminase enzyme inhibitors” (Evanston Northwestern Healthcare Research Institute, priority 1999, dated 2003).

Columns and labels:
[1] = test system: OVCAR3, OVCAR5, DU145, PC3, LNCaP, TSU-PR1, and MCF-7 tumor cell lines; conditions: several tumor cell lines; dipyridamole with Ado/CF; 60 hours
sensitive cell lines = conditions: cordycepin substituted for adenosine in experiments as in Example 3

## OCCN(CCO)c1nc(N2CCCCC2)c2nc(N(CCO)CCO)nc(N3CCCCC3)c2n1 [dipyridamole]
[1]
  protection from cytotoxic effects of Ado/CF treatment: consistently was able to protect
Sensitive cell lines
  blocking the toxic effects of cordycepin: ineffective
